{"source": "ChEMBL document CHEMBL1127014", "about": "“Synthesis and evaluation of imidazo[1,5-a][1,4]benzodiazepine esters with high affinities and selectivities at \"diazepam-insensitive\" benzodiazepine receptors” (J Med Chem, 1993)", "key": {"[1]": {"biological_target": "GABA-A receptor; anion channel", "assay": "Binding affinity for Diazepam-Insensitive fraction of GABA-A benzodiazepine receptors", "assay_type": "protein-complex assay, Rattus norvegicus"}, "[2]": {"biological_target": "GABA-A receptor; anion channel", "assay": "Binding affinity for Diazepam-Sensitive fraction of GABA-A benzodiazepine receptors", "assay_type": "protein-complex assay, Rattus norvegicus"}}}
{"smiles": "CCOC(=O)c1ncn2c1CN(C)C(=O)c1cc(N=[N+]=[N-])ccc1-2", "note": "[Ro-154513]", "values": [{"measurement": "Ki", "setting": "[1]", "value": 3.1, "unit": "nM"}, {"measurement": "Ki", "setting": "[2]", "value": 5.3, "unit": "nM"}]}
